Results reported in publication PMC5068967, “Nucleophile sensitivity of Drosophila TRPA1 underlies light-induced feeding deterrence” (eLife, 2016).

The chains behind the UniProt entries cited, without tags or fusion partners.
UniProt B3G3I7, entry or part of it: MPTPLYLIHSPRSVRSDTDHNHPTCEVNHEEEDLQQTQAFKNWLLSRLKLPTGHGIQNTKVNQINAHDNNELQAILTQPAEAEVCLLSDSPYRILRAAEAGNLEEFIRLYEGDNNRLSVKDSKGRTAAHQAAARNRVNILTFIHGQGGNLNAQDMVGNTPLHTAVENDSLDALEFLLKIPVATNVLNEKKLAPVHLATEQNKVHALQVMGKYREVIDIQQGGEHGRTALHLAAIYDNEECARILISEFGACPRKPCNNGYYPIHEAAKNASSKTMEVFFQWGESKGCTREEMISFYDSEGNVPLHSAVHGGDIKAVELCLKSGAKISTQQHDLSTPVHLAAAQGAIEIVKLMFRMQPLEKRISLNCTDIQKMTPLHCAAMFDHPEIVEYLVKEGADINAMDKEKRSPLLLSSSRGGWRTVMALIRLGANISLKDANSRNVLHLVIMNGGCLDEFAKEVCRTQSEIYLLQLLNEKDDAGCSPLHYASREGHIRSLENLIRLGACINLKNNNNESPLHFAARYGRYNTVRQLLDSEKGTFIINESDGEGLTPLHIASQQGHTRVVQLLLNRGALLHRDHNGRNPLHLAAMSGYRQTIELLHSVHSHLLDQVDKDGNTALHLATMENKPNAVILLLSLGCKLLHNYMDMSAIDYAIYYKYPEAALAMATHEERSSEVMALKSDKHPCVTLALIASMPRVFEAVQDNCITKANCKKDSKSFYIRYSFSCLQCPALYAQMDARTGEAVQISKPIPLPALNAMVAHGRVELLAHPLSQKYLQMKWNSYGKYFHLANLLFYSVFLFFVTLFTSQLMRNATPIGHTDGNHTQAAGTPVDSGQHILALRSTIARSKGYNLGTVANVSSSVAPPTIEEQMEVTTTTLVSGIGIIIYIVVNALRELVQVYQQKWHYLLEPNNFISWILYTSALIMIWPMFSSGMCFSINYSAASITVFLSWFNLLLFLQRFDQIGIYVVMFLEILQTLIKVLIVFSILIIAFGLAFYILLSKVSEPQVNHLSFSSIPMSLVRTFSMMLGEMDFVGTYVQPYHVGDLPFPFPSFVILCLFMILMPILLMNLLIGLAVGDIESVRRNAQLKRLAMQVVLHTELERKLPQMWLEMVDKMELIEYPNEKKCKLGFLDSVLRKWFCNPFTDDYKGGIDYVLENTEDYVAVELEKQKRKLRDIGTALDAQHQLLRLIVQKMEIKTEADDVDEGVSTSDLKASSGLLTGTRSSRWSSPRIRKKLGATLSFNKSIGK

Experiments:
agTRPA1(A) = agTRPA1(A) (Anopheles gambiae, UniProt B3G3I7); test: Two-electrode voltage clamp of Xenopus oocytes expressing agTRPA1(A); type: cell-based
Experimental: (§1) TRPA1-dependent currents in Xenopus laevis oocytes induced by application of chemicals and light illumination were recorded by the two-electrode voltage clamping technique (TEVC), as described previously ([Kang et al., 2010]; [Kang et al., 2012]). Briefly, ovaries were surgically prepared and subjected to digestion with 1.5 mg/ml collagenase for 1.5 hr. Subsequently, the follicular layer of the oocytes was manually removed. One day after microinjection of 50 nl of TrpA1 cRNA, oocytes were electrophysiologically examined while perfused with the recording solution (96 mM NaCl, 1 mM KCl, 1 mM MgCl2, 5 mM HEPES, pH 7.6). For UV illumination, the optical fiber terminal was mounted above the cell at a minimal distance to achieve the highest possible intensity (Figure 1—figure supplement 1c). H2O2 (HP1002, GeorgiaChem, GA, USA) and DTT (43819 Sigma Aldrich, MO, USA) solutions were freshly prepared before use. For UV experiments, the initial voltage was −60 mV, and it was then changed in periods of 300 ms from −60 to +60 mV per second. For H2O2 and DTT responses, the voltage was held constant at −60 mV during recording. […] Data from dose-dependence experiments were normalized with respect to 0.1 mM NMM currents recorded from the same cells, and fitted to the Hill equation using Sigmaplot12.

Drosophila TRPA1(A) = target: T1, Drosophila TRPA1(A) (Drosophila melanogaster, UniProt Q7Z020); test: Two-electrode voltage clamp of Xenopus oocytes expressing Drosophila TRPA1(A); type: cell-based
T1 sequence (Q7Z020 1-1197): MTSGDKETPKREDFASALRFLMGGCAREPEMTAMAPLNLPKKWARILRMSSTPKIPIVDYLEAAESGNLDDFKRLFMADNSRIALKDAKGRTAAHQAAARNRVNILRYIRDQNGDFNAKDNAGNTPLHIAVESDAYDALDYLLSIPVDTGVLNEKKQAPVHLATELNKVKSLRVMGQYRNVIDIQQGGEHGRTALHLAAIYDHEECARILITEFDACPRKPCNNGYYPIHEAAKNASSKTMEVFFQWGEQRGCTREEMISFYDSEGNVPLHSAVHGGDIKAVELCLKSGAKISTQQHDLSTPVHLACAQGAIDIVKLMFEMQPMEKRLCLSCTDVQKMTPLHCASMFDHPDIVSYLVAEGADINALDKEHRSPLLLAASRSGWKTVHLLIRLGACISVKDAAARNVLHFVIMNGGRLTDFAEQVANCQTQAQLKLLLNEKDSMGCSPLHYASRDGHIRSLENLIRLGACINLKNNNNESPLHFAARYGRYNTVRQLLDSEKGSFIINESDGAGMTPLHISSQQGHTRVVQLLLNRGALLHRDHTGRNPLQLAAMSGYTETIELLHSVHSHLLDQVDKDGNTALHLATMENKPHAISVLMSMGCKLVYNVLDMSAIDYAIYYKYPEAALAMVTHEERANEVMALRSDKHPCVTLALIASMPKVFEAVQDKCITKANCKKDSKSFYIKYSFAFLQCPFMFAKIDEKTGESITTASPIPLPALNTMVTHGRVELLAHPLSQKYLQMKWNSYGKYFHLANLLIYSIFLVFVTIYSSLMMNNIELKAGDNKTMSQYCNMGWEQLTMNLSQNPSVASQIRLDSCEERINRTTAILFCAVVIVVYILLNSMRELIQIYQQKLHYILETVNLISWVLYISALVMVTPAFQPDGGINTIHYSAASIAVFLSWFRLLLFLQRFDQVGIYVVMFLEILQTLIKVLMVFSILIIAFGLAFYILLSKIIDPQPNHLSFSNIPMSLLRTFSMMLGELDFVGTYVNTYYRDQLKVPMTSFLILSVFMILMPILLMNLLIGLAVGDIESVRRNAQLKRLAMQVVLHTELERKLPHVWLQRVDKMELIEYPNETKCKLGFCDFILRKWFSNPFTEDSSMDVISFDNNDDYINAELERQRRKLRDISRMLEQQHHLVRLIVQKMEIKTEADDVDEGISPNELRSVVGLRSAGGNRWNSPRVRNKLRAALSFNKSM
Experimental: as §1

NMM-normalized peak current amplitude relative to Drosophila TRPA1(A) (agTRPA1(A)): ~ 10 times | EC50 (Drosophila TRPA1(A)): ~92.8 µM | Emax at 10000 µM (Drosophila TRPA1(A); read-out: average maximal current amplitude relative to NMM responses): ~10%
Compound: O[C@@H](CS)[C@@H](O)CS (racemic) [DTT, dithiothreitol]
